Structures are written as SMILES. Bounds are passed on as bounds.

For the test, the system named is Escherichia coli K-12. The test is described as follows: ≥ marks a high value that may be exact or a test limit, other limits are often not marked, values filed in µg/mL are converted to µM.
Molecule `CC(C)C[C@H](NC(=O)[C@H](CC(C)C)NC(=O)[C@H](CC(N)=O)NC(=O)[C@H](CCCCN)NC(=O)[C@H](CC(C)C)NC(=O)[C@H](CC(=O)O)NC(=O)[C@@H](N)C(C)C)C(=O)N[C@@H](CCCCN)C(=O)O` [VDLKNLLK] had an MIC not below 128 µM.

Regarding `CC(C)C[C@H](NC(=O)[C@H](CC(C)C)NC(=O)[C@H](CC(N)=O)NC(=O)[C@H](CCC(=O)O)NC(=O)[C@H](CC(N)=O)NC(=O)[C@H](CC(C)C)NC(=O)[C@@H](N)C(C)C)C(=O)N[C@@H](Cc1cnc[nH]1)C(=O)O` [VLNENLLH], the MIC was not below 128 µM.

On to `CC(C)C[C@H](NC(=O)[C@H](CC(C)C)NC(=O)[C@H](CC(N)=O)NC(=O)[C@H](C)NC(=O)[C@H](CC(N)=O)NC(=O)[C@H](CC(C)C)NC(=O)[C@@H](N)C(C)C)C(=O)N[C@@H](CCCN=C(N)N)C(=O)O` [VLNANLLR], for which the MIC was not below 128 µM.

The MIC is the lowest concentration found to suppress growth. A higher MIC goes with weaker potency.

The values are drawn from DBAASP.
